One compound from ChEMBL document CHEMBL4196051, “Pyrazole-pyrazoline as promising novel antimalarial agents: A mechanistic study” (Eur J Med Chem, 2018) can be followed below.

Assay [1] can be described thus: Resistance Index, ratio of EC50 for chloroquine-resistant Plasmodium falciparum RKL9 to EC50 for chloroquine-sensitive Plasmodium falciparum 3D7. The assay is classed as functional.
Assay [2] relates to Heme. The assay is described as follows: Binding affinity to monomeric heme in DMSO/HEPES buffer solution at pH 7.4 by titration analysis.
The test system of assay [3] is Heme. In words: Binding affinity to monomeric heme in DMSO/HEPES buffer solution at pH 5.6 by titration analysis.
Assay [4] deals with mu-oxodimeric heme. In words: Binding affinity to mu-oxodimeric heme in 0.1M NaOH solution at pH 5.8 by titration analysis.

Turning to `CCN(CC)CCCC(C)Nc1ccnc2cc(Cl)ccc12` (centres undefined) [CHLOROQUINE], the Ratio EC50 in assay [1] turned out to be 3.78. Further, the log K stood at 5.23 in assay [2], 4.72 in assay [3] and 5.68 in assay [4].
